Molecular target: T1, recombinant human MAO-A (Homo sapiens, UniProt P21397)
T1 construct: purchased BD Biosciences (Bedford, MA, USA)
Experiment: Enzyme kinetics / inhibition mechanism, MAO-A (Ki, Lineweaver-Burk)
Format: biochemical

Sequences of proteins named here, by UniProt entry; tags and fusion partners are left off.
UniProt P21397, whole entry: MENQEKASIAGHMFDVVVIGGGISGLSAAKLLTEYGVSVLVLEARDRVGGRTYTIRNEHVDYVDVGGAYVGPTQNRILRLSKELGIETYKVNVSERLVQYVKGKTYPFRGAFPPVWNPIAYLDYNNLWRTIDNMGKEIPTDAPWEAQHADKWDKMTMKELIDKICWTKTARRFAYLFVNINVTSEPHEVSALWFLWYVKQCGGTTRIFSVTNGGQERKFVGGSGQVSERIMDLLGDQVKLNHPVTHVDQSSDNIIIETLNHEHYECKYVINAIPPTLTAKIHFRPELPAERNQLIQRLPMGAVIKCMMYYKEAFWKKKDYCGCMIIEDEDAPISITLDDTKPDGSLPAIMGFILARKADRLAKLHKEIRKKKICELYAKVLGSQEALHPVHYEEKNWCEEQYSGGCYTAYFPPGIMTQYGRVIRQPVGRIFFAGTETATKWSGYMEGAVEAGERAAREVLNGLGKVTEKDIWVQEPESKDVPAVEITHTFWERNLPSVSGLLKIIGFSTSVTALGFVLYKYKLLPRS

C#CCN(C)CCCOc1ccc(Cl)cc1Cl [Clorgyline, clorgyline, reference compound]
Monoamine Oxidase-A Type of Inhibition: Mixed/Irreversible

— paper PMC6271006, “Monoamine Oxidase Inhibitory Constituents of Propolis: Kinetics and Mechanism of Inhibition of Recombinant Human MAO-A and MAO-B” (Molecules, 2014)
